Laboratory results from paper PMC9921063 (Molecules, 2023).

Amino acid sequences for entries named in this document (tags omitted). Residues count along the entry.
UniProt O42275, 24-633: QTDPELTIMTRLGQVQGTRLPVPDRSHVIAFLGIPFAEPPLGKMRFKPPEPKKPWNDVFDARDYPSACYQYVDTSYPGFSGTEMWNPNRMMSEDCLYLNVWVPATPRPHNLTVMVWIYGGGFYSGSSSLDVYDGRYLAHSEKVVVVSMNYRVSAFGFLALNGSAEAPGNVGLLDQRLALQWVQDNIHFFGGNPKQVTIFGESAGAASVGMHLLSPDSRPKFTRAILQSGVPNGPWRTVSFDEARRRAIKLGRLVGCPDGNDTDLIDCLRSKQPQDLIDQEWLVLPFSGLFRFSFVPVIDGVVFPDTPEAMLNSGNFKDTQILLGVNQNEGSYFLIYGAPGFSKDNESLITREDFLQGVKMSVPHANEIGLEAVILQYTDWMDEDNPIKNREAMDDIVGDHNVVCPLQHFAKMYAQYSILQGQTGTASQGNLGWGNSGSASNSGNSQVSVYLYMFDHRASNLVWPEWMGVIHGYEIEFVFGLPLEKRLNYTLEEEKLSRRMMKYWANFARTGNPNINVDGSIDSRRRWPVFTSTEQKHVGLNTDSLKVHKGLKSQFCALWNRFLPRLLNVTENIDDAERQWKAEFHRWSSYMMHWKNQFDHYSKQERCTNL

Biological target: electric eel AChE (Electrophorus electricus, UniProt O42275)
Type: biochemical
Settings: mean ± S.D.
Procedure: According to the Ellman et al. published spectrophotometric method of electric eel AChE [47], AChEI activity was measured. Acetylthiocholine iodide (ATCI) was used as the reaction’s substrate, and the antiacetylcholinesterase activity was measured using 5,5’-Dithiobis-(2-nitrobenzoic acid) (DTNB).

| Substance | AChEI IC50 [µM mL^−1] |
| --- | --- |
| 5,6-Dimethyl-[1,3-(2,3,4,5,6-pentamethyl-2,4,6-trimethyl)-benzimidazol-2-ylidene](p-cymene) ruthenium(II) chloride [Compound 3a] | 15.05 ± 2.2 |
| 5,6-Dimethyl-[1,3-(2,3,4,5,6-pentamethyl-2,4,6-trimethyl)-benzimidazol-2-ylidene](p-cymene) ruthenium(II) chloride [Compound 3b] | 2.52 ± 3.4 |
| 5,6-Dimethyl-[1,3-(3,5)dimethyl-4-methyl)-benzimidazol-2-ylidene](p-cymene) ruthenium(II) chloride [Compound 3d] | 5.06 ± 0.8 |
| 5,6-Dimethyl-[1,3-(4-(tert-butyl)-4-methyl)-benzimidazol-2-ylidene] (p-cymene) ruthenium (II) chloride [Compound 3c] | 11.95 ± 1.6 |
